As usually defined, the IC50 is the point on the concentration scale where inhibition reaches its midpoint.

Amino acid sequences for entries named in this document (tags omitted). Residues count along the entry.
UniProt P55085, 26-397: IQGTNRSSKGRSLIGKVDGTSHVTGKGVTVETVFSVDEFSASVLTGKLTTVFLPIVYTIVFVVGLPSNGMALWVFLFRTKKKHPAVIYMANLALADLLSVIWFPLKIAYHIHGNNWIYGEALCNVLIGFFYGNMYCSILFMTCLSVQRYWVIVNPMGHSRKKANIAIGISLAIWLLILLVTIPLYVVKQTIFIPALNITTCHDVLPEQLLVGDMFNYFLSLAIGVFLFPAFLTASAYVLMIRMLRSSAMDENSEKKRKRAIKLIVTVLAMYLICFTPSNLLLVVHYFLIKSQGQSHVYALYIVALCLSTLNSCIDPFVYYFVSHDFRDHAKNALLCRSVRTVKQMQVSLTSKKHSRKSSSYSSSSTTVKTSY

Assay [1] has as its target T1, PAR2 (Homo sapiens (Human), UniProt P55085). The experiment in a line: IP-One HTRF assay for PAR2 antagonist activity (IP1 production). It is filed as cell-based. The following applies: hPAR2 IPpone IC50 (μM), 1321N1 cells stably expressing human PAR2; agonist SLIGRL-NH2. The protocol: Protocol for Testing Compounds for PAR2 Antagonist Activity Using an IP-One HTRF Assay
Inositol monophosphate (IP1) production were measured in 1321N1 cells stably expressing human PAR2 using an IP-One HTRF assay kit (Cisbio). […] After 60 min at 37° C. cells were lysed and IP1 concentrations were detected according to the manufacturers protocol (Cisbio). Data were normalized to IP1 concentrations using a IP1 standard curve according to the manufacturers protocol (Cisbio).
For orientation: TR-FRET usually uses a lanthanide donor and a delayed reading to cut background.

In assay [2] the target is T1, PAR2. Kind of assay: Trypsin activated FLPR Ca2+ mobilization assay for PAR2 antagonist activity. The assay is classed as cell-based. As to conditions: hPAR2 FLPR (Trypsin) IC50 (μM), 1321N1 cells stably expressing human PAR2; agonist Trypsin; Vorapaxar present to block PAR1. The protocol:
Trypin Activated FLPR Assay:
Protocol for Testing Compounds for PAR2 Antagonist Activity Using a Ca2+ Mobilization Assay
Calcium mobilization was measured using 1321N1 cells stably expressing human PAR2. Cells were seeded in 384-well plates at 4,000 cells per well in 20 μl DMEM with Glutamax supplemented with 10% FBS and incubated for 18-24 h at 37° C., 5% CO2 and 95% humidity. […] The addition was done using a FLIPR^TETRA (384-well head, Molecular Devices) and the response was read simultaneously to detect any agonist activity.
In general terms: Calcium flux is commonly read through the fluorescence of an indicator in the cells.

Consider `OC(c1ncc[nH]1)c1ccc(F)c2oc3ccccc3c12` (stereo not drawn) [Example 53, (4-Fluorodibenzo[b,d]furan-1-yl)(1H-imidazol-2-yl)methanol], for which the IC50 at PAR2 [1] was found to be 1.63 µM; at PAR2 [2], 5.42 µM. On PAR2 [2], `Cc1cccc2c(F)ccc(C(O)c3ncc[nH]3)c12` (stereo not drawn) [Example 59, (4-Fluoro-8-methylnaphthalen-1-yl)(1H-imidazol-2-yl)methanol] showed an IC50 of 6.73 µM.

Turning to `CCc1ccn2c(F)ccc(C(O)c3ncc[nH]3)c12` (stereo not drawn) [Example 60, (1-Ethyl-5-fluoro-indolizin-8-yl)-(1H-imidazol-2-yl)methanol], the IC50 at PAR2 [2] was 8.13 µM.

Consider `OC(c1ncn[nH]1)c1ccc(F)cc1N1CCCC1` (stereo not drawn) [Example 64, (4-Fluoro-2-(pyrrolidin-1-yl)phenyl)(1H-1,2,4-triazol-5-yl)methanol], for which the IC50 on PAR2 [1] was 4.06 µM; at PAR2 [2], 20 µM.

(Values after patent US10550089B2, “Inhibitors of protease-activated receptor-2” (Heptares Therapeutics Limited, priority 2016, dated 2020).)
